Patent publication US4585777A, “(-)-Trans-4-(4-fluorophenyl)-3-(4-methoxyphenoxy)methylpiperidine for potentiating 5-HT” (A/S Ferrosan, priority 1984, dated 1986)

Assays:
5-HT uptake = test: Potentiation of 5-HTP (5-Hydroxytryptophane) induced hypermotility in mice (Procedure/Test 173); 5-HT potentiation or 5-HT uptake-inhibition; assay type: in vivo, mice (female, NMRI strain); conditions: Mus musculus, sc, read-out: Test 173: dose increasing the activity to double the activity of controls receiving 5-HTP alone (ED), mice, s.c.; 5-HTP 150 mg/kg i.p. 30 min before; motility 45-75 min after 5-HTP; water-soluble salt
From the text: (§1) (J. Buus Lassen, European Journal of Pharmacology 47, 351-358 (1978)). See also Squires in Acta Pharmacol. et Toxicol, 1972, 31 Suppl. 1,35 for a description of a further procedure for measurement of the same 5-HT uptake-inhibitory phenomenon.
I. Potentiation of 5-HTP (5-Hydroxytryptophane) induced hypermotility in mice (Procedure 173)
This behavior is characterized by continuous jerky locomotion, head movements from side to side, abduction of the hind limbs, tremor, and lordosis.
Measurement of the motility after administration of test drugs to 5-HTP-pretreated mice is therefore used as a test for 5-HT-potentiation, which most probably proceeds through an inhibition of 5-HT uptake.
Method: Female mice of the NMRI strain weighing 20-22 g are used. The controls receive 5-HTP 150 mg/kg (15 ml/kg) i.p. (i.p.=intraperitoneally) and thirty (30) minutes later physiological saline (20 ml/kg) s.c. (s.c.=subcutaneously). The motility is measured by an Animex™ motimeter 45-75 minutes after 5-HTP administration. The test animals received test substances s.c. (20 ml/kg) instead of physiological saline. Five groups of two (2) mice are used for control and per dose of each test drug. the test substance is dosed according to the dose scale 1, 1.6, 2.5, 4, 6.3, and 10 mg/kg etc.
The best straight line is fitted through the points in a coordinate system (abscissa log dose, ordinate log activity). […]

in vivo = conditions: mouse, sc, TI (Therapeutic Index), 001/173, LD50/ED50, mice s.c.
From the text: as §1

## Fc1ccc([C@@H]2CCNC[C@H]2COc2ccc3c(c2)OCO3)cc1 (single isomer, unassigned) [FG 7051, reference compound]
5-HT uptake
  ED (2-fold activity of controls): 1.7 mg/kg
In vivo
  selectivity ratio: 168
